Values of other authors in patent US6605304B1, “Silicate-containing powders providing controlled, sustained gas release” (Bernard Technologies, Inc., priority 1998, dated 2003).

Tested on: mice
Details: subchronic and acute oral administration

Substance: sodium chlorite
- chromosomal aberrations or micronuclei in the bone marrow: failed to induce any chromosomal aberrations or increased numbers of micronuclei
